Data reported in PubChem BioAssay AID504430 (National Center for Advancing Translational Sciences (NCATS), 2011).
The list shows a part of the results, in another mix than the full data. Calls of active or inactive are those of the source.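 The calls were made as follows: active = compounds that block the splicing kinase Clk1 enough to give a fitted half-inhibition concentration; inactive = the rest.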

Sequences of proteins named here, by UniProt entry; tags and fusion partners are left off. A change or cut given only in a name is not applied to a line headed by its entry.
UniProt P49759: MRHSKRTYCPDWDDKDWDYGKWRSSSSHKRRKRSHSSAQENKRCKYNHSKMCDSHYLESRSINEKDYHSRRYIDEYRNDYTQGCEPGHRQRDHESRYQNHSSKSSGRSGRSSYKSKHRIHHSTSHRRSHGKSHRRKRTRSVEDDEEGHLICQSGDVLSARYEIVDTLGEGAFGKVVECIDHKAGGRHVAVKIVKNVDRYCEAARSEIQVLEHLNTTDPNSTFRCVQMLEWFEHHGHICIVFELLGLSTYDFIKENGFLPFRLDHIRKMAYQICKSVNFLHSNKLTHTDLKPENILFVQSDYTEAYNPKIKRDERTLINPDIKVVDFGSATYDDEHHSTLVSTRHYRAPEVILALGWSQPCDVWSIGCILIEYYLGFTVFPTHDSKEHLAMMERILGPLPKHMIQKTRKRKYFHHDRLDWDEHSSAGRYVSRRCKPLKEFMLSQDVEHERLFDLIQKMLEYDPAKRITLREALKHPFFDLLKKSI

Target: Dual specificity protein kinase CLK1 (Homo sapiens) (UniProt P49759)
Assay: Kinase Inhibition Study on Inhibitors of CDC-like Kinase 1 (Reaction Biology data)
Conditions: recombinant Clk1 kinase assay, 10 uM ATP
Source text: NIH Molecular Libraries Probe Production Centers Network [MLPCN] NIH Chemical Genomics Center [NCGC] MLPCN Grant: 1R03MH084827-01 Assay Submitter (PI): Tom Misteli NCGC Assay Overview: Alternative splicing of pre-mRNAs plays a major role in the regulation of eukaryotic gene expression. Alternative splicing is now thought to be one of the primary reasons for the complexity of higher organisms leading to an average of three protein isoforms per gene. Aberrant splicing can lead to a number of diseases and is known to play a role in rare genetic diseases such as progeria syndrome. Hutchinson-Gilford Progeria Syndrome (HGPS) is a pediatric premature aging disease caused by a spontaneous mutation in the lamin A/C (LMNA) gene due to a single point mutation in the lamin A gene effecting 1 in 4 million people. To identify both specific splicing modulators of the lamin A gene as well as general splicing modulators, a cell-based HTS assay was developed using a minigene reporter system (AIDs, 1459 & 1487). […] This AID summarizes the characterization of lead compounds in Clk1.
All kinase reactions were performed using 10 uM ATP in the assay. 100% activity was taken from kinase reactions with DMSO alone (the vehicle used for compound stock solutions).

Structure (SMILES) | Potency
c1coc(CCNc2ncnc3ccc(-c4ccc5c(c4)OCO5)cc23)c1 | active: 130 nM
